Literature values, collected in patent US8507276B2, “Tissue culture media used as a component of cosmetics” (La Prairie Group AG, priority 2003, dated 2013).
Where two headings read alike, the source gives them in different places.

Substance	Polarity (medium-polar lipids) [mN/m]	Polarity (polar lipids) [mN/m]
Butylene Glycol Caprylate/Caprate [Dermofeel BGC]	21.5	–
Di-C12/13 Alkyl Tartrate [Cosmacol ETI]	–	7.1
Diethylene Glycol Dioctanoate/Diisononanoate [Dermol 489]	–	8.6
